Values quoted from earlier work as cited in patent US20020077465A1, “ADAM polynucleotides, polypeptides, and antibodies” (priority 2000, published 2002).

Protein sequences, listed by entry. Tags and fused reporters are not part of them. Residues count along the entry.
UniProt P08254, 100-477, species assumed: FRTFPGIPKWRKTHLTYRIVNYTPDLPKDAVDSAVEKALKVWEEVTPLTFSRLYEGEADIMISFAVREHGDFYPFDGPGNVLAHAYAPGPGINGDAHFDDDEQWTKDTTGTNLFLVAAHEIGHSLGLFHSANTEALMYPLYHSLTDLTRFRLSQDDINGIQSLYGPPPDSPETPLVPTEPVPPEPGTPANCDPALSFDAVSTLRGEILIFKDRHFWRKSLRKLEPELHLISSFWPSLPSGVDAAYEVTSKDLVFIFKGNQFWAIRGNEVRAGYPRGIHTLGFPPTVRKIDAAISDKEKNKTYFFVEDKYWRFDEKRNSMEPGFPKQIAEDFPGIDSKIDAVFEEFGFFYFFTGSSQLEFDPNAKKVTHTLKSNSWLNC

Target: MMP-3 (Homo sapiens, UniProt P08254)
Details: read-out: Ki against MMP-3

With COc1ccc(S(=O)(=O)N(CC(=O)NO)CC(C)C)cc1 [MMP-3 inhibitor II] as the compound, how does the Ki read?
Its Ki is 130 nM.
